Results published in patent US7977370B2, “(Hetero)aryl cyclohexane derivatives” (dated 2011).
Like-named read-outs stand apart in the source and are kept apart here.

Amino acid sequences for entries named in this document (tags omitted). A change or cut given only in a name is not applied to a line headed by its entry.
UniProt P35372, whole entry, looked up: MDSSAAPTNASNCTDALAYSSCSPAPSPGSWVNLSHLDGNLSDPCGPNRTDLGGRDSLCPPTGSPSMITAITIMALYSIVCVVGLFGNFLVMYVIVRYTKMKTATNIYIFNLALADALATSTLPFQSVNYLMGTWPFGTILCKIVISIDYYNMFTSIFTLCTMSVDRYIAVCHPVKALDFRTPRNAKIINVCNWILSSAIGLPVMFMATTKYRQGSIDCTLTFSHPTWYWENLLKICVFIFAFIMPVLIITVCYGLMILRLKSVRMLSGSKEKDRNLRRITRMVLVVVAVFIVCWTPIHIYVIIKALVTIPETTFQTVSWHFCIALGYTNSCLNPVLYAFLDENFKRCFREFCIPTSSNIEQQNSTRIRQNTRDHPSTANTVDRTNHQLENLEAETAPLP
UniProt P41146: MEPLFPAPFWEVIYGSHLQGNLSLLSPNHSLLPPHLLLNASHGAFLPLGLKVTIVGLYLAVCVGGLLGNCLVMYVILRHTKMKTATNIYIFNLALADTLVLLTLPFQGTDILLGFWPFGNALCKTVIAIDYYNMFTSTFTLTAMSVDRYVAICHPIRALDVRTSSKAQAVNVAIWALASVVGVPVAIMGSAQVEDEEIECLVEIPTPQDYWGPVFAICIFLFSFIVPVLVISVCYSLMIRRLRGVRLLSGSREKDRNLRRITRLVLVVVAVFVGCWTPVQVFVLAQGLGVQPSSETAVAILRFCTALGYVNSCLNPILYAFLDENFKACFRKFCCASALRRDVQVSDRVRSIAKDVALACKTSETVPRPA
UniProt P41145: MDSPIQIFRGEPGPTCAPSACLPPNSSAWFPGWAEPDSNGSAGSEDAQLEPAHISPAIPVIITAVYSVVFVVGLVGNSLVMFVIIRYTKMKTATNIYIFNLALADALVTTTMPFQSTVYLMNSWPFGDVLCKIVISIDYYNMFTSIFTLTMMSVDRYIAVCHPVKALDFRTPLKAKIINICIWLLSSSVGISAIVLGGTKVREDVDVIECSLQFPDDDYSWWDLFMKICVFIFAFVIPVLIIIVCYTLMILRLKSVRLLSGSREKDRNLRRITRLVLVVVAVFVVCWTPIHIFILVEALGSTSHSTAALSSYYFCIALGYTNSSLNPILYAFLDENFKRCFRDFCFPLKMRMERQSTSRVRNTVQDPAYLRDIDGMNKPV

Experiments:
human μ-opiate receptor = human μ-opiate receptor (Homo sapiens, UniProt P35372); experiment: μ-opiate receptor binding assay with [3H]-naloxone, CHO-K1 membrane preparation; settings: for Ki: read-out: Ki (μ) Mean; for % Inhibition (μ) [1 μM]: test concentration 1 μM; for Ki (μ)/Ki (ORL1): ratio, comparison table Q=(hetero)aryl vs Q=H
ORL 1-receptor = ORL 1-receptor (Homo sapiens, UniProt P41146); experiment: ORL 1 receptor binding assay with 3H-nociceptin/orphanin FQ, membranes of recombinant CHO-ORL 1 cells; settings: for Ki: read-out: Ki (ORL1) Mean; for % Inhibition (ORL1) [1 μM]: test concentration 1 μM
kappa-opioid receptor = kappa-opioid receptor (Homo sapiens, UniProt P41145); experiment: kappa-opioid receptor binding assay with [3H]-Cl-977, CHO-K1 membrane preparation; settings: for Ki: read-out: Ki (kappa) Mean, comparison table

| Compound | Ki (human μ-opiate receptor; Table 1) [µM] | Ki (ORL 1-receptor; Table 1) [µM] | % Inhibition (μ) [1 μM] (human μ-opiate receptor) [%] | % Inhibition (ORL1) [1 μM] (ORL 1-receptor) [%] | other results |
| --- | --- | --- | --- | --- | --- |
| Cc1c(C2(c3ccccc3)CCC(c3ccccc3)(N(C)C)CC2)[nH]c2ccccc12 (stereo not drawn) | 0.15 | 0.02 |  |  | Ki (human μ-opiate receptor; comparison table): 0.15 µM; Ki (ORL 1-receptor; comparison table): 0.02 µM; Ki (kappa-opioid receptor): 0.58 µM |
| CCCCC1(N(C)C)CCC(c2[nH]c3ccccc3c2CCN2CCc3ccccc3C2)(c2[nH]c3ccccc3c2CCN2CCc3ccccc3C2)CC1.Cl |  |  | 99 | 99 |  |
| CNC1(c2ccccc2)CCC(c2[nH]c3ccccc3c2CCc2ccncc2)(c2[nH]c3ccccc3c2CCc2ccncc2)CC1 |  |  | 80 | 70 |  |
| CCCCC1(N(C)C)CCC(c2[nH]c3ccccc3c2C)(c2[nH]c3ccccc3c2CCN2C(=O)c3ccccc3C2=O)CC1 (stereo not drawn) | 0.012 | 0.029 |  | 87 |  |
| CCCCC1(N(C)C)CCC(c2[nH]c3ccccc3c2CCc2ccncc2)(c2[nH]c3ccccc3c2CCc2ccncc2)CC1.O=C(O)CC(O)(CC(=O)O)C(=O)O |  |  | 100 | 95 |  |
| (phenyl-2-(2-(4-butyl-4-(dimethylamino)-1-(5-fluoro-3-methyl-1H-indol-2-yl)cyclohexyl)-1H-indol-3-yl)ethyl carbamate |  |  | 90 | 83 |  |
| CCCCC1(N(C)C)CCC(c2[nH]c3ccc(C(F)(F)F)cc3c2C)(c2[nH]c3ccc(C(F)(F)F)cc3c2C)CC1 | 0.557 | 1.33 |  |  |  |
| CCCCC1(N(C)C)CCC(c2[nH]c3ccc(F)cc3c2C)(c2[nH]c3ccccc3c2CCNC(=O)Nc2ccccc2)CC1 (stereo not drawn) | 0.029 | 0.031 | 95 | 86 |  |
| Cc1c(C2(c3ccc4c(c3)OCO4)CCC(c3ccccc3)(N(C)C)CC2)[nH]c2ccccc12 (stereo not drawn) | 0.47 | 0.265 |  | 56 |  |
| CCCCC1(N(C)C)CCC(c2[nH]c3ccccc3c2C)(c2[nH]c3ccccc3c2C)CC1 | 0.022 | 0.023 |  | 88 |  |
| 4-(3-(2-aminoethyl)-1H-indol-2-yl)-1-butyl-4-(5-fluoro-3-methyl-1H-indol-2-yl)-N,N-cyclohexylamine |  |  | 98 | 95 |  |
| Cc1c(C2(c3cccs3)CCC(Cc3ccccc3)(N(C)C)CC2)[nH]c2ccccc12 (stereo not drawn) |  |  |  | 72 |  |
| Cc1c(C2(c3[nH]c4ccccc4c3C)CCC(c3ccccc3)(N(C)C)CC2)[nH]c2ccccc12.O=C(O)CC(O)(CC(=O)O)C(=O)O |  |  | 83.5 | 77 |  |
| CCCCC1(N(C)C)CCC(c2[nH]c3ccccc3c2CCC(=O)OC)(c2[nH]c3ccccc3c2CCC(=O)OC)CC1 | 0.003 | 0.011 |  | 93 |  |
| CCCCC1(N(C)C)CCC(c2c(C)c3ccccc3n2C)(c2c(C)c3ccccc3n2C)CC1 | 0.081 | 0.45 |  |  |  |
| Cc1c(C2(c3[nH]c4ccccc4c3C)CCC(c3ccccc3)(N(C)C)CC2)[nH]c2ccccc12 | 0.06 | 0.043 |  |  |  |
| CCCCC1(N(C)C)CCC(c2[nH]c3ccccc3c2C)(c2[nH]c3ccccc3c2CCN)CC1 (stereo not drawn) | 0.001 | 0.001 |  | 98 |  |
| CCCCC1(N(C)C)CCC(c2[nH]c3ccccc3c2CCc2ccncc2)(c2[nH]c3ccccc3c2CCc2ccncc2)CC1 | 0.005 | 0.013 |  |  |  |
| CCCCC1(N(C)C)CCC(c2[nH]c3ccccc3c2C)(c2c(C)c3ccccc3n2C)CC1 (stereo not drawn) | 0.165 | 0.61 |  |  |  |

| Compound | Ki (human μ-opiate receptor; Table 1) [µM] | Ki (ORL 1-receptor; Table 1) [µM] | % Inhibition (μ) [1 μM] (human μ-opiate receptor) [%] | % Inhibition (ORL1) [1 μM] (ORL 1-receptor) [%] | other results |
| --- | --- | --- | --- | --- | --- |
| Cc1c(C2(c3cccs3)CCC(c3cccc(F)c3)(N(C)C)CC2)[nH]c2ccccc12 (stereo not drawn) |  |  |  | 86 |  |
| N,N-dimethyl-4-(3-methyl-1H-indol-2-yl)-1-phenyl-4-(3-(2-pyridin-4-yl)ethyl)-1H-indol-2-yl)cyclohexylamine |  |  | 73 | 61 |  |
| CCCCC1(N(C)C)CCC(c2[nH]c3ccccc3c2C)(c2[nH]c3ccccc3c2CCNS(=O)(=O)C2CCCC2)CC1 (stereo not drawn) |  |  |  | 97 |  |
| CCCCC1(N(C)C)CCC(c2c(C)c3ccccc3n2C)(c2c(C)c3ccccc3n2C)CC1.Cl |  |  |  | 31 |  |
| CN(C)C1(c2ccccc2)CCC(c2[nH]c3ccccc3c2CCc2ccncc2)(c2[nH]c3ccccc3c2CCc2ccncc2)CC1 | 0.028 | 0.088 |  | 71 |  |
| Cc1c(C2(c3ccccc3)CCC(c3ccccc3)(N(C)C)CC2)[nH]c2ccccc12.O=C(O)CC(O)(CC(=O)O)C(=O)O (stereo not drawn) |  |  | 76 | 82 | Ki (μ)/Ki (ORL1) (human μ-opiate receptor): 7.5; Ki (kappa)/Ki (ORL1) (kappa-opioid receptor; ratio, comparison table Q=(hetero)aryl vs Q=H): 29 |
| Cc1c(C2(c3oc4ccccc4c3C)CCC(c3ccccc3)(N(C)C)CC2)oc2ccccc12 | 0.78 | 0.283 |  |  | Ki (human μ-opiate receptor; comparison table): 0.78 µM; Ki (ORL 1-receptor; comparison table): 0.283 µM |
| Cc1c(C2(c3[nH]c4ccccc4c3CCc3ccncc3)CCC(c3ccccc3)(N(C)C)CC2)[nH]c2ccccc12 (stereo not drawn) | 0.061 | 0.018 | 97 | 94 |  |
| Cc1c(C2(c3oc4ccccc4c3C)CCC(c3ccccc3)(N(C)C)CC2)oc2ccccc12.O=C(O)CC(O)(CC(=O)O)C(=O)O |  |  | 3 | 8 | Ki (μ)/Ki (ORL1) (human μ-opiate receptor): 2.8 |
| CN(C)C1(c2ccccc2)CCC(c2cccs2)(c2[nH]c3ccccc3c2CCc2ccncc2)CC1 (stereo not drawn) | 0.717 | 0.021 | 69 | 82 |  |
| CCCCC1(N(C)C)CCC(c2[nH]c3ccccc3c2C)(c2c(C)c3ccccc3n2C)CC1.Cl (stereo not drawn) |  |  |  | 30 |  |
| COc1ccc(C2(c3[nH]c4ccccc4c3C)CCC(c3ccccc3)(N(C)C)CC2)cc1 (stereo not drawn) | 0.078 | 0.039 | 74 | 80 |  |
| CN(C)C1(c2cccs2)CCC(c2[nH]c3ccccc3c2CCc2ccncc2)(c2[nH]c3ccccc3c2CCc2ccncc2)CC1 | 0.143 | 0.029 | 73 | 93 | Ki (human μ-opiate receptor; comparison table): 0.143 µM; Ki (ORL 1-receptor; comparison table): 0.029 µM; Ki (kappa-opioid receptor): 0.16 µM |
| 1-benzyl-N,N-dimethyl-4,4-bis(3-(2-(pyridin-4-yl)ethyl)-1H-indol-2-yl)cyclohexanamine; 2-hydroxypropane-1,2,3-tricarboxylate (2:3) | 0.01 | 0.73 | 96 | 19 |  |
| CCCCC1(N(C)C)CCC(c2[nH]c3ccccc3c2CCNC(=O)Nc2ccccc2)(c2[nH]c3ccccc3c2CCNC(=O)Nc2ccccc2)CC1 | 0.011 | 0.012 | 100 | 97 |  |
| CCCCC1(N2CCCC2)CCC(c2[nH]c3ccccc3c2CCc2ccncc2)(c2[nH]c3ccccc3c2CCc2ccncc2)CC1 | 0.093 | 1.08 | 77 | 18 |  |
| CCCCC1(N(C)C)CCC(c2[nH]c3ccc(C(F)(F)F)cc3c2C)(c2[nH]c3ccc(C(F)(F)F)cc3c2C)CC1.O=C(O)CC(O)(CC(=O)O)C(=O)O |  |  | 60 | 9 |  |
| CCCCC1(N(C)C)CCC(c2[nH]c3ccccc3c2C)(c2[nH]c3ccccc3c2CCNC(=O)Nc2ccccc2)CC1 (stereo not drawn) | 0.0043 | 0.013 | 100 | 98 |  |
| COc1cccc(C2(c3[nH]c4ccccc4c3C)CCC(c3ccccc3)(N(C)C)CC2)c1 (stereo not drawn) |  |  |  | 82 |  |
